Experiments:
[1] = target: Delta-type opioid receptor (Homo sapiens, UniProt P41143); assay: Displacement of [3H]naltrindole from cloned human delta opioid receptor expressed in CHO cells
Nociceptin receptor = Nociceptin receptor (Homo sapiens, UniProt P41146); assay: Agonist activity on nociceptin-induced maximal [35S]GTP-gamma-S binding to ORL1 expressed in CHO cells

Q: For CCn1c(=O)n([C@@H]2CCN(CC3CCCCCCC3)C[C@H]2CO)c2ccccc21, which IC50 [1] is on record?
A: Its IC50 is > 10 µM.

Q: What about the EC50 (Nociceptin receptor) of the same molecule?
A: The EC50 was > 10 µM.

From BindingDB's records for 16451050
